Experimental data reported in US12048700B2, “Crystalline monosodium salt of 5-methyl-(6S)-tetrahydrofolic acid” (Merck Patent GmbH, priority 2017, dated 2024).

Columns and labels:
physchem = settings: water, thermodynamic from solid, room temperature, suspension stirred 30 minutes with excess solid
[1] = for time the solution remains clear: r.t.; for kinetic solubility in water: room temperature, purified/de-ionized water, vigorously agitated and briefly sonicated, monosodium salt
Description: 2.535 ml of purified/de-ionized water (for instance water for chromatography) is added to the solid using an adjustable volumetric pipette. The mixture is vigorously agitated at room temperature and briefly sonicated.

[2] = 25° C./60% rh
Description: (§1) The content of 5-methyl-(6S)-tetrahydrofolic acid remaining in the samples was measured by HPLC at periodic intervals (% w/w). The content of 5-methyl-(6S)-tetrahydrofolic acid remaining was also compared to the initial value at the time of preparation (% rel.). Additionally the content of the pyrazino-s-triazine derivative of 4α-hydroxy-5-methyl-THF (MeFox), a major degradation product, was measured by HPLC at periodic intervals and disclosed as absolute values (% w/w).

[3] = 40° C./75% rh
Description: as §1, with “sample” for “samples”

For `CN1c2c(nc(N)[nH]c2=O)NC[C@@H]1CNc1ccc(C(=O)N[C@@H](CCC(=O)[O-])C(=O)O)cc1.[Na+]` [5-methyl-(6S)-tetrahydrofolic acid monosodium salt], the solubility at 30 min (physchem; solubility in water expressed as equivalent of the calcium salt) was 9600 µg/mL, the solubility at 30 min (physchem; solubility in water) was 9300 µg/mL and the “time the solution remains clear” value ([1]; 23.8 mg in 2.38 ml water) was “more than 20 hours”. The “time the solution remains clear” value ([1]; 62.3 mg in 4.15 ml water) was “several hours”, the “kinetic solubility in water” value ([1]; listed as crystalline 5-methyl-(6S)-tetrahydrofolic acid monosodium salt) was “greater than 10 mg per 1 ml of water” and the “kinetic solubility in water” value ([1]; listed as crystalline MTHF monosodium salt) was “greater than 25 mg per 1 ml of water”. For the same compound, the “kinetic solubility in water” value ([1]; listed as crystalline monosodium salt) was “greater than 15 mg per 1 ml of water”.
For `CN1c2c([nH]c(N)nc2=O)NC[C@@H]1CNc1ccc(C(=O)N[C@@H](CCC(=O)[O-])C(=O)[O-])cc1.[Ca+2]` [calcium salt of 5-methyl-(6S)-tetrahydrofolic acid], the “5-methyl-(6S)-tetrahydrofolic acid remaining relative to initial value” ([2]; 0 months) was 100.0 % rel, the “Pyrazino-s-triazine derivative of 4α-hydroxy-5-methyl-THF (MeFox), major degradation product” value (shortened to “Pyrazino-s-triazine derivative”) ([2]; 0 months) was 0.20 % w/w and the “5-methyl-(6S)-tetrahydrofolic acid remaining relative to initial value” ([2]; 3 months) was 97.9 % rel. The “Pyrazino-s-triazine derivative” value ([2]; 3 months) was 0.84 % w/w, the “5-methyl-(6S)-tetrahydrofolic acid remaining relative to initial value” ([2]; 6 months) was 96.3 % rel and the “Pyrazino-s-triazine derivative” value ([2]; 6 months) was 0.90 % w/w. For the same compound, the “5-methyl-(6S)-tetrahydrofolic acid remaining relative to initial value” ([2]; 9 months) was 97.3 % rel, the “Pyrazino-s-triazine derivative” value ([2]; 9 months) was 0.85 % w/w and the “5-methyl-(6S)-tetrahydrofolic acid remaining relative to initial value” ([2]; 12 months) was 96.5 % rel. For the same compound, the “Pyrazino-s-triazine derivative” value ([2]; 12 months) was 0.86 % w/w, the “5-methyl-(6S)-tetrahydrofolic acid remaining relative to initial value” ([3]; 0 months) was 100.0 % rel and the “Pyrazino-s-triazine derivative” value ([3]; 0 months) was 0.20 % w/w. For the same compound, the “5-methyl-(6S)-tetrahydrofolic acid remaining relative to initial value” ([3]; 3 months) was 97.2 % rel, the “Pyrazino-s-triazine derivative” value ([3]; 3 months) was 1.01 % w/w and the “5-methyl-(6S)-tetrahydrofolic acid remaining relative to initial value” ([3]; 6 months) was 96.6 % rel. For the same compound, the “Pyrazino-s-triazine derivative” value ([3]; 6 months) was 0.96 % w/w, the “5-methyl-(6S)-tetrahydrofolic acid remaining relative to initial value” ([3]; 9 months) was 97.6 % rel and the “Pyrazino-s-triazine derivative” value ([3]; 9 months) was 0.93 % w/w. For the same compound, the “5-methyl-(6S)-tetrahydrofolic acid remaining relative to initial value” ([3]; 12 months) was 96.3 % rel and the “Pyrazino-s-triazine derivative” value ([3]; 12 months) was 0.95 % w/w.

Read-outs that look alike come from different tables or passages of the source.
